This is a selection; strong and weak results do not stand in their true shares. Active and inactive are the calls of the source.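 Rule for the calls: active = inhibition above the mean of the plate negative controls plus 5 SD (cut at about 13% in these data); inactive = the rest.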
test: blockers of IgG-bead uptake by macrophages – imaging, J774A.1 cells, IgG beads, primary screen (AID 1029); conditions: J774A.1 macrophage IgG-bead phagocytosis, at 5 µM, active compounds read high;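 note: phagocytic index as fraction of beads internalized from green versus red external bead signal; plate controls were DMSO negative control for no effect and cytochalasin-D positive control for full effect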

| Structure (SMILES) | inhibition |
| --- | --- |
| Cc1ccc(C)c(NP(C)(=O)Oc2ccccc2)c1 (stereo not drawn) | inactive: -0.2% |
| Cc1cc(C)cc(OP(C)(=O)Nc2ccccn2)c1 (stereo not drawn) | inactive: -1.3% |
| CCOC(=O)c1ccc(NP(C)(=O)Oc2cc(C)cc(C)c2)cc1 (stereo not drawn) | inactive: -9.18% |
| Cc1cc(C)cc(OP(C)(=O)Nc2ccc(C)cc2C)c1 (stereo not drawn) | inactive: 0.2% |
| Cc1nc2ccc3ccccc3c2s1.O=[N+]([O-])c1cc([N+](=O)[O-])c(O)c([N+](=O)[O-])c1 | inactive: -0.4% |
| CP(=O)(Nc1ccc(SC(F)(F)F)cc1)Oc1ccccc1 (stereo not drawn) | inactive: 1.33% |
| CN1CCCCC1COC(=O)C1(O)c2ccccc2CCc2ccccc21 (stereo not drawn) | inactive: -5.85% |
| CP(=O)(Nc1ccccc1Br)Oc1ccccc1 (stereo not drawn) | inactive: -2.53% |
| CP(=S)(Nn1cnnc1)Oc1ccccc1 (stereo not drawn) | inactive: -1.3% |
| CP(=O)(Nc1ccccn1)Oc1ccc(Cl)cc1 (stereo not drawn) | inactive: 0.6% |
| CCOP(C)(=S)SCC(=O)NC(C)C(=O)O (stereo not drawn) | inactive: 0.1% |
| Cc1cc(C)cc(OP(C)(=O)Nc2ccc(SC(F)(F)F)cc2)c1 (stereo not drawn) | inactive: -7.61% |
| Cc1cccc(C)c1OP(C)(=O)Nc1ccc(SC(F)(F)F)cc1 (stereo not drawn) | inactive: -10.5% |
| COc1ccc(OP(C)(=O)Nc2cccc(F)c2)cc1 (stereo not drawn) | inactive: 0.6% |
| COc1ccccc1OP(C)(=O)Nc1ccc(C)cc1 (stereo not drawn) | inactive: -0.6% |
| Cc1ccc(NP(C)(=O)Oc2ccccc2)c(C)c1 (stereo not drawn) | inactive: 0.6% |
| CCOC(=O)c1ccc(NP(C)(=O)Oc2ccccc2)cc1 (stereo not drawn) | inactive: 1.68% |
| CC(C)(C)c1ccc(OP(C)(=O)Nc2ccc(SC(F)(F)F)cc2)cc1 (stereo not drawn) | inactive: -8.04% |
| Cc1nc2ccc3ccccc3c2o1.O=[N+]([O-])c1cc([N+](=O)[O-])c(O)c([N+](=O)[O-])c1 | inactive: 0.9% |

| Structure (SMILES) | inhibition |
| --- | --- |
| COc1ccccc1OP(C)(=O)Nc1ccc(C)c(C)c1 (stereo not drawn) | inactive: -0.1% |
| CP(=O)(Nc1ccccn1)Oc1ccccc1 (stereo not drawn) | inactive: -1.2% |
| COc1ccc(OP(C)(=O)Nc2ccccn2)cc1 (stereo not drawn) | inactive: -0.6% |
| CN(C)CCOC(=O)C(O)(c1ccccc1)C1CCCC1 (stereo not drawn) | inactive: 1% |
| CC(C)(C)c1ccc(OP(C)(=O)O)cc1 | inactive: -1% |
| COc1ccccc1OP(C)(=O)Nc1c(C)n(C)n(-c2ccccc2)c1=O (stereo not drawn) | inactive: 0.2% |
| CP(=O)(Oc1ccccc1)N1CCOC1=O (stereo not drawn) | inactive: -0.4% |
| CCN(CC)CC(O)COC(=O)C(O)(c1ccccc1)C1CCCCC1 (stereo not drawn) | inactive: 0.1% |
| COc1ccc(OP(C)(=O)Nc2ccc(Br)cc2)cc1 (stereo not drawn) | inactive: -4.1% |
| CCOC(=O)c1ccc(NP(C)(=O)Oc2ccc(Cl)cc2)cc1 (stereo not drawn) | inactive: -12.1% |
| CP(=O)(OC12CC3CC(CC(C3)C1)C2)OC12CC3CC(CC(C3)C1)C2 | inactive: -1% |
| CN(C)CCOC(=O)C(O)(c1ccccc1)C1CCCCC1 (stereo not drawn) | inactive: -0.1% |
| COc1ccc(OP(C)(=O)Nc2cccc(Br)c2)cc1 (stereo not drawn) | inactive: -2.3% |
| Cc1ccccc1NP(C)(=O)Nc1ccccc1C | inactive: 0.2% |
| CCOP(C)(=S)SCC(=O)NC(C)(CC)C(=O)O (stereo not drawn) | inactive: 1% |
| O=C(OCCN1CCN(CCOCc2ccccc2)CC1)C(O)(c1ccccc1)c1ccccc1 | inactive: -6.28% |
| CP(=O)(Nc1ccccc1F)Oc1ccccc1 (stereo not drawn) | inactive: -0.4% |
| CC(C)c1ccc(OP(C)(=O)Nc2ccc(SC(F)(F)F)cc2)cc1 (stereo not drawn) | inactive: -1.95% |
| CCOC(=O)c1ccc(NP(C)(=O)Oc2ccc(F)cc2)cc1 (stereo not drawn) | inactive: -2.53% |
